Reference: patent US10087187B2, “Imidazopyridazine derivatives as PI3KB inhibitors” (Janssen Pharmaceutica NV, priority 2014, dated 2018)

Legend:
[1] = test system: Akt phosphorylated at Thr308 in PC-3 cells; test: Cellular assay: phosphorylation of Akt (Thr308) in PC-3 cells, MSD ELISA; conditions: read-out: IC50 pAkt_Thr308, 60 min incubation with compound
[2] = test system: Akt phosphorylated at Ser473 in PC-3 cells; test: Cellular assay: phosphorylation of Akt (Ser473) in PC-3 cells, MSD ELISA; conditions: read-out: IC50 pAkt_S473, 60 min incubation with compound

IC50 [1] [nM] | IC50 [2] [nM] | SMILES
43 | 79 | Cc1c(Cc2c(CO)nc3c(N)cc(N4CCOC(CO)C4)nn23)cccc1C(F)(F)F (single isomer, unassigned) [Compound 65]
513 | > 513 | Cc1c(Cc2c(CO)nc3c(N)cc(N4CCOC(CO)C4)nn23)cccc1C(F)(F)F (single isomer, unassigned) [Compound 66]
